Earlier results as cited in article PMC8426299, “Effect of severe renal impairment on the pharmacokinetics of brigatinib” (Investigational New Drugs, 2021).

Test system: ALK + NSCLC
Design: method as in PMID 32780660
Conditions: ALK inhibitor-naive patients; cited from earlier work

SMILES: C[C@@H](Oc1cc(-c2cnn(C3CCNCC3)c2)cnc1N)c1c(Cl)ccc(F)c1Cl [crizotinib]
- 24-month PFS, blinded independent review committee-assessed: 26%
- 24-month PFS, investigator-assessed: 24%
